# Test results published in PubChem BioAssay AID504490 (NMMLSC, 2011).
# Only a part is listed here, and it is no random draw. Calls of active or inactive are those of the source.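 The calls were made as follows: active = inhibition above a set limit, near 3 SD of compounds lacking own fluorescence (cut at about 54% in these data); inactive = the rest.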
# System: beta-arrestin 1 C-terminal peptide binding to AP2 beta2-adaptin appendage (human)
# Test: blockers of arrestin peptide association with AP2 adaptin – biochemical, GPCR trafficking, flow cytometry, primary screen (AID 504490);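 also: plate controls were DMSO wells for no effect and 5 µM unlabelled arrestin peptide for full effect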
# Conditions: FITC-arrestin peptide / GST-AP2 beads, at 10 µM, active compounds read high, AP2 beta2 appendage carries R879A mutation
row,SMILES,inhibition
1,O=C(NCC1(N2CCCCC2)CCCCC1)c1cncc(Br)c1,inactive: -18.3%
2,CN1CCC(Nc2cccc(F)c2)CC1,inactive: -2.73%
3,CCCOc1ccc(C(=O)NCC2(N(C)C)CCCCC2)cc1OC,inactive: -13%
4,CC(C)c1ccc(NC2CCN(C(=O)OC(C)(C)C)CC2)cc1,inactive: 21.8%
5,COc1ccc(CN(CCCl)CCCl)cc1Cl,inactive: -18.5%
6,CN(C)c1cccc(C(=O)NCC2(N3CCCCC3)CCCCC2)c1,inactive: 18.8%
7,COc1cc(OC)c(C(=O)NCC2(N(C)C)CCCCC2)cc1OC,inactive: 39.8%
8,O=C(NCC1(N2CCOCC2)CCCCC1)c1cc(F)c(F)cc1Cl,inactive: 4.04%
9,O=C(NCC1(N2CCCCC2)CCCCC1)c1cccc(C(F)(F)F)c1,inactive: 0.83%
10,O=C(NCC1(N2CCOCC2)CCCCC1)c1cc(=O)[nH]c2ccccc12,inactive: 15.4%
11,COc1cc(C(=O)NCC2(N3CCCCC3)CCCCC2)ccc1OC(F)F,inactive: -8.89%
12,CC(C)c1ccc(C(=O)NCC2(N3CCOCC3)CCCCC2)cc1,inactive: -1.92%
13,COc1ccc(NC2CCN(C(=O)OC(C)(C)C)CC2)cc1,inactive: 12%
14,CN1CCN(CCOC(=O)C(O)(c2ccccc2)c2ccccc2)CC1,inactive: 4.75%
15,O=C(NCC1(N2CCCCC2)CCCCC1)c1ccc(OC(F)F)cc1,inactive: 0.47%
16,CCN1CCC(Nc2ccc(Cl)cc2)CC1,inactive: 15.3%
17,N#CC1(Nc2ccccc2)CCN(CCc2ccccc2)CC1,inactive: 37.7%
18,CSc1ccc(C(=O)NCC2(N3CCOCC3)CCCCC2)cc1,inactive: 36%
19,O=C(NCC1(N2CCCCC2)CCCCC1)c1cccc([N+](=O)[O-])c1,inactive: 31.8%
20,COc1cc(C(=O)NCC2(N(C)C)CCCCC2)ccc1OC(F)F,inactive: -0.92%
21,CCOC(=O)N1CCC(Nc2cccc(C)c2)CC1,inactive: 5.01%
22,O=C1CCN(Cc2ccccc2)CC1,inactive: 14.4%
23,CCOc1ccc(C)cc1CN(CCCl)CCCl,inactive: -0.47%
24,O=C(NCC1(N2CCCCC2)CCCCC1)c1ccc(F)cc1,inactive: -13.5%
25,CCCCOc1ccc(C(=O)NCC2(N3CCOCC3)CCCCC2)cc1,inactive: 44.6%

row,SMILES,inhibition
1,O=P1(N(CCCl)CCCl)SCCCS1,inactive: 20.3%
2,CCOC(=O)N1CCC(Nc2ccc(F)cc2)CC1,inactive: 3.96%
3,COc1ccc(NC2CCN(CCc3ccccc3)CC2)c(OC)c1,inactive: 29.8%
4,O=C(NCC1(N2CCCCC2)CCCCC1)c1ccc(Cl)nc1,inactive: -1.54%
5,Cc1cc(C)cc(N(C(=O)c2ccccc2)C2CCN(C(=O)OC(C)(C)C)CC2)c1,inactive: 0.98%
6,O=C(NCC1(N2CCOCC2)CCCCC1)c1cc2ccccc2o1,inactive: -5.81%
7,O=C(OC1CN2CCC1CC2)C1c2ccccc2Oc2ccccc21 (centres undefined),inactive: -8.81%
8,N#CC1(Nc2ccccc2)CCN(Cc2ccccc2)CC1,inactive: 2.57%
9,O=C(NCC1(N2CCCCC2)CCCCC1)c1ccc(Cl)s1,inactive: 11.3%
10,COc1ccc(Cl)cc1C(=O)NCC1(N2CCOCC2)CCCCC1,inactive: -5.85%
11,CCOC(=O)N1CCC(Nc2ccc(OC)cc2)CC1,inactive: 1.54%
12,COc1ccc(C(=O)NCC2(N3CCCCC3)CCCCC2)cc1,inactive: 6.79%
13,CC(C)(C)OC(=O)N1CCC(N(C(=O)c2ccccc2)c2ccc(F)cc2)CC1,inactive: 11.1%
14,COc1ccc(C(=O)NCC2(N3CCCCC3)CCCCC2)c(OC)c1OC,inactive: -6.29%
15,O=C(NCC1(N2CCCCC2)CCCCC1)c1ccc(=O)[nH]c1,inactive: 2.45%
16,O=C(NCC1(N2CCCCC2)CCCCC1)c1cccs1,inactive: 4.86%
17,CSc1ccccc1C(=O)NCC1(N2CCCCC2)CCCCC1,inactive: 18.9%
18,Cc1cccc(NC2(C#N)CCN(Cc3ccccc3)CC2)c1,inactive: 10.2%
19,COc1cccc(C(=O)N(c2cc(C)cc(C)c2)C2CCN(C(=O)OC(C)(C)C)CC2)c1,inactive: -7.8%
20,COc1cc(OC)cc(C(=O)NCC2(N3CCOCC3)CCCCC2)c1,inactive: -29.3%
21,CCC(CO)(C(=O)OC1CN2CCC1CC2)c1ccccc1 (centres undefined),inactive: 12.1%
22,CN1CCC(Nc2ccc(Cl)cc2)CC1,inactive: 10.8%
23,CCOc1ncccc1C(=O)NCC1(N2CCOCC2)CCCCC1,inactive: 1.5%
24,CN1CCC(Nc2ccc(F)c(Cl)c2)CC1,inactive: 9.3%
25,CC(C)(C)OC(=O)N1CCC(Nc2ccccc2)CC1,inactive: -4.97%

row,SMILES,inhibition
1,O=C(O)C1(Nc2ccccc2)CCN(Cc2ccccc2)CC1,inactive: -5.2%
2,CCCOc1ccc(C(=O)NCC2(N(C)C)CCCCC2)cc1,inactive: -14.8%
3,Cc1ccccc1NC1(C#N)CCN(Cc2ccccc2)CC1,inactive: 15.1%
4,CCN1CCC(Nc2cccc(F)c2)CC1,inactive: -1.83%
5,O=C(NCC1(N2CCCCC2)CCCCC1)c1ccco1,inactive: -4.79%
6,Cn1c(=O)[nH]cc(N(CCCl)CCCl)c1=O,inactive: 7.43%
7,CN(C)c1ccc(C(=O)NCC2(N3CCCCC3)CCCCC2)cc1,inactive: 27.9%
8,CC(=O)N(c1ccccc1)C1CCNCC1,inactive: 30.1%
9,COc1cc(OC)cc(C(=O)NCC2(N3CCCCC3)CCCCC2)c1,inactive: 17.8%
10,Cc1ccc(C(=O)NCC2(N3CCCCC3)CCCCC2)o1,inactive: 8.53%
11,Fc1ccccc1NC1CCN(Cc2ccccc2)CC1,inactive: 4.6%
12,Cc1ccc(NC2(C#N)CCN(Cc3ccccc3)CC2)cc1,inactive: 5.7%
13,CN(C)C1(CNC(=O)c2cccc(C#N)c2)CCCCC1,inactive: -5.65%
14,c1ccc(CN2CCC(Nc3ccccc3)CC2)cc1,inactive: 2%
15,Cc1cc(N(CCCl)CCCl)ccc1C=O,inactive: -3.39%
16,CCCN1CCC(Nc2cc(OC)cc(OC)c2)CC1,inactive: -15%
17,N#Cc1ccc(C(=O)NCC2(N3CCCCC3)CCCCC2)cc1,inactive: -2.17%
18,CC(C)(C)OC(=O)N1CCC(N(C(=O)c2ccccc2)c2ccc(Cl)cc2)CC1,inactive: 5.74%
19,CCOC(=O)N1CCC(Nc2ccc(C)cc2)CC1,inactive: 47.6%
20,N/C(=N\O)c1c(N)no[n+]1[O-],inactive: -8.67%
21,O=C(OC1CN2CCC1CC2)C1c2ccccc2C=Cc2ccccc21 (centres undefined),inactive: -4.11%
22,COc1cc(C(=O)NCC2(N3CCOCC3)CCCCC2)cc(OC)c1C,inactive: -5.89%
23,O=C(NCC1(N2CCOCC2)CCCCC1)c1cc(Br)ccc1Cl,inactive: -8.98%
24,COc1ccc(C(=O)NCC2(N3CCOCC3)CCCCC2)cc1OC,inactive: 9.5%
